Chains of the proteins cited; added tags and fusions are not shown.
UniProt P32245, whole entry: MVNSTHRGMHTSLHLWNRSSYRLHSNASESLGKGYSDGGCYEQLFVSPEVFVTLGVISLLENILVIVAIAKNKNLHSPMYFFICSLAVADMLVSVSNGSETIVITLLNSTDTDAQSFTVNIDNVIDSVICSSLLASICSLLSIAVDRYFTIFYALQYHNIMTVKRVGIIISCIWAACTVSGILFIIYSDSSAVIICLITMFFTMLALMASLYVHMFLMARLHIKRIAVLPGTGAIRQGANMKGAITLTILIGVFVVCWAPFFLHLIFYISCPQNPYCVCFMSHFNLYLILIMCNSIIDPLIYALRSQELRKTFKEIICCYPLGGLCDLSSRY

In patent US6355473B1, “Yeast cells having mutations in stp22 and uses therefor” (Cadus Pharmaceutical Corp., priority 1998, dated 2002):

Biological target: T1, human melanocortin receptor 4 (hMCR4) (Homo sapiens, UniProt P32245)
T1 construct: expressed in transfected cells; host or cells: Saccharomyces cerevisiae CY9438 (wild type) and CY12201 (stp22), co-expressing rat GαsD229S
Assay: FUS1-lacZ β-galactosidase induction assay in yeast expressing hMCR4
Assay type: cell-based
Details: native hMCR4, stp22 mutant vs wild type

NDP-α-MSH
change of EC50 value, stp22 versus wild type: several-fold decrease | increase of specific ligand-induced levels of β-galactosidase activity, stp22 versus wild type (rat GαsD229S): approximately 2 fold
